Values quoted from earlier work in US20240124538A1, “Modulation of Wnt5a to Treat Glaucoma” (The Regents of the University of California, priority 2017, published 2024).

Conditions: Shinonaga et al. 2009; cited from earlier work

## 6,7-dihydro-10alpha-hydroxy radicicol
  stability: excellent stability
